From PubChem BioAssay AID602340 (Broad Institute, 2012) come the findings set out here.

The entries are a selection whose mix differs from that of the whole data set. Activity calls are given as the source filed them.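 The calls were made as follows: active = mean ATP rescue above about 67%, or every replicate alone reaching that limit (limit read from the data, passing the limit was not always enough); inconclusive = no clear call, values can overlap the other calls; inactive = mean under the limit and some replicate under it.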

This assay is described as follows: suppressors of statin myotoxicity in C2C12 myotubes, primary screen, cell-based, single point, plate reader (AID 602340).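 Also: myotubes were challenged with 10 µM simvastatin during compound exposure.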 The following applies: C2C12 myotubes + simvastatin, ATP luminescence, 48 h; at 7.49 µM; active compounds read high; scaled: DMSO 0, geranylgeraniol control 100.
For the compound `COc1cccc(C(c2nnnn2C2CCCC2)N2CCC(n3c(=O)[nH]c4ccccc43)CC2)c1OC` (configuration not stated), the rescue of ATP level is inactive: 10.4%.
To `COc1cc(OC)cc(C(=O)NCC2(N3CCOCC3)CCCCC2)c1` belongs inactive: -0.635%.
To `CCC(CO)(C(=O)OC1CN2CCC1CC2)c1ccccc1` (configuration not stated) belongs inactive: -11.4%; to `Cc1ccc(C(=O)NCC2(N3CCCCC3)CCCCC2)o1`, inactive: -2.3%; to `Fc1ccccc1NC1CCN(Cc2ccccc2)CC1`, inactive: 17.1%.
The figure for `Cc1ccc(NC2(C#N)CCN(Cc3ccccc3)CC2)cc1` is inactive: -2.03%; for `CC(=O)N(c1ccccc1)C1CCNCC1` it is inactive: -1.37%; for `COc1cccc(C(c2nnnn2C2CCCCC2)N2CCC(n3c(=O)[nH]c4ccccc43)CC2)c1OC` (configuration not stated) it is inactive: 5.57%.
As for `CCC(c1nnnn1C1CCCCC1)N1CCC(n2c(=O)[nH]c3ccccc32)CC1` (configuration not stated), the rescue of ATP level was inactive: -0.549%.
On to `O=c1[nH]c2ccccc2n1C1CCN(C(c2ccnc3ccccc23)c2nnnn2C2CCCCC2)CC1` (configuration not stated), for which the rescue of ATP level was inactive: -17.7%.
To `COc1cc(OC)cc(C(=O)NCC2(N3CCCCC3)CCCCC2)c1` belongs inactive: 14.9%.
To `O=C(NCC1(N2CCCCC2)CCCCC1)c1ccco1` belongs inactive: -12.6%; to `Cn1c(=O)[nH]cc(N(CCCl)CCCl)c1=O`, inactive: -0.168%; to `Cc1ccccc1NC1(C#N)CCN(Cc2ccccc2)CC1`, inactive: -0.943%.
To `CC(C)(C)n1nnnc1C(c1ccnc2ccccc12)N1CCC(n2c(=O)[nH]c3ccccc32)CC1` (configuration not stated) belongs inactive: -43.7%.
On to `COc1ccc(C(c2nnnn2C2CCCCC2)N2CCC(n3c(=O)[nH]c4ccccc43)CC2)cc1` (configuration not stated), for which the rescue of ATP level is inactive: 7.48%.
To `N#Cc1ccc(C(=O)NCC2(N3CCCCC3)CCCCC2)cc1` belongs inactive: 2.73%; to `CC(C)(C)OC(=O)N1CCC(N(C(=O)c2ccccc2)c2ccc(Cl)cc2)CC1`, inactive: 2.77%.
To `CC(C)(C)n1nnnc1C(c1cccc2ccccc12)N1CCC(n2c(=O)[nH]c3ccccc32)CC1` (configuration not stated) belongs inactive: -22.9%.
The figure for `CN(C)C1(CNC(=O)c2cccc(C#N)c2)CCCCC1` is inactive: -9.87%; for `CCCN1CCC(Nc2cc(OC)cc(OC)c2)CC1` it is inactive: -6.21%.
In the case of `O=c1[nH]c2ccccc2n1C1CCN(C(c2ccccc2)c2nnnn2C2CCCC2)CC1` (configuration not stated), the rescue of ATP level was inactive: 10.3%.
To `O=c1[nH]c2ccccc2n1C1CCN(C(c2cccs2)c2nnnn2C2CCCCC2)CC1` (configuration not stated) belongs inactive: 13.6%; to `O=c1[nH]c2ccccc2n1C1CCN(C(c2ccnc3ccccc23)c2nnnn2C2CCCC2)CC1` (configuration not stated), inactive: -26.9%; to `CCCCn1nnnc1C(c1ccccc1)N1CCC(n2c(=O)[nH]c3ccccc32)CC1` (configuration not stated), inactive: 2.71%.
As for `COc1cc(C(=O)NCC2(N3CCOCC3)CCCCC2)cc(OC)c1C`, the rescue of ATP level is inactive: -29.3%.
As for `O=C(NCC1(N2CCOCC2)CCCCC1)c1cc(Br)ccc1Cl`, the rescue of ATP level is inactive: -6.67%.
In the case of `O=c1[nH]c2ccccc2n1C1CCN(C(c2cccs2)c2nnnn2C2CCCC2)CC1` (configuration not stated), the rescue of ATP level is inactive: -0.134%.
Turning to `CCCCn1nnnc1C(c1cccc(OC)c1OC)N1CCC(n2c(=O)[nH]c3ccccc32)CC1` (configuration not stated), the rescue of ATP level was inactive: -1.68%.
To `COc1cccc(C(c2nnnn2C(C)(C)C)N2CCC(n3c(=O)[nH]c4ccccc43)CC2)c1OC` (configuration not stated) belongs inactive: -2.46%; to `CCOC(=O)N1CCC(Nc2ccc(C)cc2)CC1`, inactive: 12%.
The figure for `N/C(=N\O)c1c(N)no[n+]1[O-]` is inactive: 5.35%.
